The entries are a selection whose mix differs from that of the whole data set. Calls of active or inactive are those of the source. The call rests on the fitted dose curve; in most records, active means well fitted activation curve with a large enough effect; inconclusive means small, poorly fitted or top-dose-only effect; inactive means no such curve, though single readings can be large or run the other way.

The assay in a line: qHTS Assay for Small Molecule Inhibitors of Mitochondrial Division or Activators of Mitochondrial Fusion. Further: % of control where 0% means no effect; nearly all actives have a fitted effect of over 45% in size. As to conditions: S. cerevisiae fusion-defective mutant growth rescue, CellTiterGlo 48 h; at 46.1 µM (top of the series). The source says: NIH Chemical Genomics Center [NCGC] NIH Molecular Libraries Probe Production centers Network [MLPCN] MLPCN Grant: MH081279-01 Assay Submitter (PI): Jodi M. Nunnari NCGC Assay Overview: The budding yeast S. cerevisiae is a powerful system to study mitochondrial fusion. Unlike other organisms, yeast cells without functional mitochondrial DNA (mtDNA) can be propagated and studied as long as they maintain a mitochondrial compartment and are provided with a fermentable carbon source. When mitochondrial fusion is blocked in yeast, mitochondrial tubules rapidly fragment and division continues unopposed. Under conditions where fusion is compromised in mammalian cells, nearly identical changes in mitochondrial structure have been observed. Thus, these findings indicate that steady state mitochondrial structure in cells is a characteristic and specific indicator of fusion activity. Mounting evidence has pointed to a connection between mitochondrial dynamics and apoptosis in mammalian cells. These studies indicate that in mammalian cells mitochondrial dynamics are more integrated into cellular processes than in yeast cells and have evolved not only to distribute the organelle but also to aid in the regulation of cellular homeostasis. Mitochondrial fusion proteins attenuate apoptosis by inhibiting the release of cytochrome c from mitochondria, in part by controlling cristae structures. Thus, small molecules that inhibit mitochondrial […] may promote apoptosis and potentially act as novel chemotherapeutics and stimulation of apoptosis has become an attractive target of anti-cancer therapies. To identify inhibitors of mitochondrial division, we exploit the growth phenotypes of mitochondrial fusion-defective mutants. The temperature sensitive fusion alleles, such as fzo1-1 and mgm1-5, cause mitochondrial membranes to fragment in cells under non-permissive conditions and cells lose mtDNA, and are unable to grow in the presence of non-fermentable carbon source glycerol. Inhibiting mitochondrial division rescues growth. We have developed and optimized a luminescence cell viability assay in 1536 well format for the identification of inhibitors in the yeast mitochondrial fusion-defective assay.
The yeast glycerol stocks where kindly supplied by the laboratory of Dr. Jodi Nunnari, University of California, Davis. All yeast glycerol stock solutions were stored in single use aliquots at -80C. The CellTiterGlo luminescence reagent, containing luciferase and luciferin, were purchased from Promega, and the reagents were stored according to manufacturer's instructions. The Buffer components for the YPEG yeast growth medium were purchased from Sigma-Aldrich (St. Louis, MO). YPEG growth medium: 1% (w/v) yeast extract, 2% (w/v) Bacto-peptone, 3% Ethanol, 3% glycerol, 0.4mM Tryptophan, 0.36mM Adenine. qHTS Assay Protocol: 1.#Dispense 2.5 ul yeast growth medium per 1536 well plate. 2.#Transfer 23 nl per well of compound to plate. 3.#Dispense 2.5 ul yeast solution at appropriate seeding density per well. 4.#Incubate for 48 hours at 37C. 5.#Dispense 5 ul of CellTiterGlow solution per well. 6.#Incubate at ambient for 10 minutes. 7.#Read using bio-luminescence protocol on Viewlux.
(In general: qHTS replaces the single test concentration by a dilution series.)
Consider `CCOC(=O)c1ccc(NP(C)(=O)Oc2ccc(Cl)cc2)cc1` (configuration not stated), for which the growth rescue (activation) was inactive: 3.96%.
Consider `CN(C)C(=O)c1c([N+](=O)[O-])cc([N+](=O)[O-])cc1[N+](=O)[O-]`, for which the growth rescue (activation) is inactive: -6.48%.
Regarding `CP(=O)(Nc1ccc(Cl)cc1)Oc1ccc(F)cc1` (configuration not stated), the growth rescue (activation) was inactive: 3.53%.
Turning to `CC(C)(C)c1ccc(OP(C)(=O)O)cc1`, the growth rescue (activation) was inactive: -1.31%.
In the case of `COc1ccccc1OP(C)(=O)Nc1ccccc1Br` (configuration not stated) it was inactive: -2.57%.
Then `CCc1ccc(OP(C)(=O)Nc2cccnc2)cc1` (configuration not stated), with inactive: 8.35%.
Turning to `CP(=O)(Oc1ccccc1)N1CCOC1=O` (configuration not stated), the growth rescue (activation) was inactive: -6.97%.
Then `O=C(OCCCN1CCCC1)C(O)(c1ccccc1)C1CCCCC1` (configuration not stated), with inactive: -7.83%; and `COc1ccccc1OP(C)(=O)Nc1c(C)n(C)n(-c2ccccc2)c1=O` (configuration not stated), with inactive: 0.349%.
In the case of `COc1ccc(OP(C)(=O)Nc2ccc(Br)cc2)cc1` (configuration not stated) it was inactive: -0.409%; in that of `CCN(CC)CC(O)COC(=O)C(O)(c1ccccc1)C1CCCCC1` (configuration not stated), inactive: -1.55%.
`CCc1ccc(OP(C)(=O)O)cc1`: the growth rescue (activation) is inactive: -2.74%.
Regarding `COc1ccccc1OP(C)(=O)Nc1ccc(C)cc1C` (configuration not stated), the growth rescue (activation) is inactive: 2.15%.
As to `CP(=O)(Nc1ccccn1)Oc1ccccc1` (configuration not stated), the growth rescue (activation) is inactive: 1.93%.
Turning to `O=[N+]([O-])c1cc([N+](=O)[O-])c(Nc2ccccn2)c([N+](=O)[O-])c1`, the growth rescue (activation) is inactive: -30.1%.
For `Cc1c(NP(C)(=O)Oc2ccc(C(C)C)cc2)c(=O)n(-c2ccccc2)n1C` (configuration not stated), the growth rescue (activation) is inactive: 2.48%.
For the molecule `CN(C)CCOC(=O)C(O)(c1ccccc1)C1CCCC1` (configuration not stated), the growth rescue (activation) is inactive: -1.27%.
For the molecule `COc1ccc(OP(C)(=O)Nc2ccccn2)cc1` (configuration not stated), the growth rescue (activation) was inactive: -0.79%.
In the case of `COc1ccccc1OP(C)(=O)Nc1ccc(Br)cc1` (configuration not stated) it was inactive: 2.83%.
As for `CP(=O)(OCCOc1ccccc1)OCCOc1ccccc1`, the growth rescue (activation) was inactive: 0.184%.
Turning to `CP(=O)(Nc1ccc(Cl)cc1Cl)Oc1ccccc1` (configuration not stated), the growth rescue (activation) is inactive: 4.98%.
As for `Cc1nc2ccc3ccccc3c2o1.O=[N+]([O-])c1cc([N+](=O)[O-])c(O)c([N+](=O)[O-])c1`, the growth rescue (activation) was inactive: -0.145%.
As for `COc1ccc(OP(C)(=O)Nc2ccccc2Br)cc1` (configuration not stated), the growth rescue (activation) was inactive: 9.44%.
In the case of `COc1ccccc1OP(C)(=O)Nc1ccc(C)c(C)c1` (configuration not stated), the growth rescue (activation) was inactive: 1.37%.
In the case of `Cc1cc(C)cc(OP(C)(=O)Nc2cccc(C(F)(F)F)c2)c1` (configuration not stated), the growth rescue (activation) is inactive: 13.1%.
`CCCCCOc1ccc(NP(C)(=O)Oc2ccc(Cl)cc2Cl)cc1` (configuration not stated): the growth rescue (activation) was inactive: 3.19%.
Then `CP(=O)(Nc1ccccc1)Oc1ccc(F)cc1` (configuration not stated), with inactive: -0.0174%.
`CCN(CC)CCCOC(=O)C(O)(c1ccccc1)C1CCCCC1` (configuration not stated): the growth rescue (activation) is inactive: -0.958%.
`COc1ccc(OP(C)(=O)Nc2ccc(SC(F)(F)F)cc2)cc1` (configuration not stated): the growth rescue (activation) was inactive: 22.7%.
In the case of `O=C(OCCN1CCN(CCOCc2ccccc2)CC1)C(O)(c1ccccc1)c1ccccc1`, the growth rescue (activation) was inactive: -1.16%.
Turning to `CC(C)c1ccc(OP(C)(=O)Nc2ccc(SC(F)(F)F)cc2)cc1` (configuration not stated), the growth rescue (activation) was inactive: 2.81%.
Regarding `CP(=O)(Nc1ccccc1F)Oc1ccccc1` (configuration not stated), the growth rescue (activation) was inactive: 0.0837%.
With `Cc1ccccc1NP(C)(=O)Nc1ccccc1C`, the growth rescue (activation) is inactive: 0.583%.
`CP(=O)(Nc1ccc2c(c1)OCCO2)Oc1ccccc1` (configuration not stated): the growth rescue (activation) is inactive: 3.04%.
On to `CCOP(C)(=S)SCC(=O)NC(C)(CC)C(=O)O` (configuration not stated), for which the growth rescue (activation) was inactive: -4.38%.
Then `CP(=O)(Nc1ccc(SC(F)(F)F)cc1)Oc1ccc(F)cc1` (configuration not stated), with inactive: 8.47%; and `Cc1cc(-c2cccc3ccccc23)c(C)cn1.O=[N+]([O-])c1cc([N+](=O)[O-])c(O)c([N+](=O)[O-])c1`, with inactive: -0.231%.
Turning to `O=[N+]([O-])c1ccc(OP2(=O)COCCO2)cc1` (configuration not stated), the growth rescue (activation) was inactive: -0.0091%.
For `COc1ccc(NP(C)(=O)Oc2ccccc2OC)cc1` (configuration not stated), the growth rescue (activation) is inactive: -4.51%.
Regarding `CN(C)CCOC(=O)C(O)(c1ccccc1)C1CCCCC1` (configuration not stated), the growth rescue (activation) was inactive: -4.22%.
As for `COc1ccc(OP(C)(=O)Nc2cccc(Br)c2)cc1` (configuration not stated), the growth rescue (activation) was inactive: 0.984%.
Then `CP(=O)(Nc1ccc(SC(F)(F)F)cc1)Oc1ccccc1` (configuration not stated), with inactive: 14.2%; and `CN1CCCCC1COC(=O)C1(O)c2ccccc2CCc2ccccc21` (configuration not stated), with inactive: -8.11%.
Then `COc1ccccc1OP(C)(=O)Nc1c(C)cccc1C` (configuration not stated), with inactive: -1.53%; and `O=[N+]([O-])c1cc([N+](=O)[O-])c(Nc2nnnn2CCO)c([N+](=O)[O-])c1`, with inactive: 17.2%; and `CC1=C2N=C(C=C3N=C(C(C)=C4[N-][C@@](C)([C@@H]5N=C1[C@](C)(CCC(=O)NC[C@@H](C)OP(=O)([O-])O[C@H]1[C@@H](O)[C@@H](n6cnc7cc(C)c(C)cc76)O[C@@H]1CO)[C@H]5CC(N)=O)[C@@](C)(CC(N)=O)[C@@H]4CCC(N)=O)[C@@](C)(CC(N)=O)[C@@H]3CCC(N)=O)C(C)(C)[C@@H]2CCC(N)=O.[C-]#N.[Co+3]`, with inactive: -19.3%.
As to `Cc1nc2ccc3ccccc3c2s1.O=[N+]([O-])c1cc([N+](=O)[O-])c(O)c([N+](=O)[O-])c1`, the growth rescue (activation) was inactive: 1.88%.
On to `O=[N+]([O-])c1cc([N+](=O)[O-])c(-n2nnc3ccccc32)c([N+](=O)[O-])c1`, for which the growth rescue (activation) was inactive: 2.9%.
For `CP(=O)(Nc1cccc(Br)c1)Oc1ccccc1` (configuration not stated), the growth rescue (activation) was inactive: 11.6%.
In the case of `Cc1cc(C)cc(OP(C)(=O)Nc2ccccn2)c1` (configuration not stated) it was inactive: -1.61%.
Consider `Cc1ccc(C)c(NP(C)(=O)Oc2ccccc2)c1` (configuration not stated), for which the growth rescue (activation) is inactive: -2.08%.
Turning to `Cc1cc(C)cc(OP(C)(=O)Nc2ccc(C)cc2C)c1` (configuration not stated), the growth rescue (activation) was inactive: 3.1%.
In the case of `CCOC(=O)c1ccc(NP(C)(=O)Oc2cc(C)cc(C)c2)cc1` (configuration not stated) it was inactive: -1.98%.
In the case of `COc1ccccc1OP(C)(=O)Nc1cccc(Br)c1` (configuration not stated) it was inactive: -0.362%; in that of `CC1=NCCc2c1[nH]c1ccccc21.O=[N+]([O-])c1cc([N+](=O)[O-])c(O)c([N+](=O)[O-])c1`, inactive: 2.45%.
On to `COc1ccc(OP(C)(=O)Nc2cccc(F)c2)cc1` (configuration not stated), for which the growth rescue (activation) was inactive: 0.855%.
Consider `COc1ccccc1OP(C)(=O)Nc1cc(Cl)ccc1C` (configuration not stated), for which the growth rescue (activation) was inactive: 2.59%.
As to `Cc1cc(C)cc(OP(C)(N)=O)c1` (configuration not stated), the growth rescue (activation) was inactive: 6.83%.
Take `CCOC(=O)c1ccc(NP(C)(=O)Oc2ccccc2)cc1` (configuration not stated): the growth rescue (activation) was inactive: 1.05%.
In the case of `Cc1ccc(NP(C)(=O)Oc2ccccc2)c(C)c1` (configuration not stated), the growth rescue (activation) is inactive: 11.1%.
In the case of `COc1ccccc1OP(C)(=O)Nc1ccc(C)cc1` (configuration not stated) it was inactive: 0.4%.
Regarding `Cc1cccc(C)c1OP(C)(N)=O` (configuration not stated), the growth rescue (activation) was inactive: 24.4%.
Consider `CC(C)(C)c1ccc(OP(C)(=O)Nc2ccc(SC(F)(F)F)cc2)cc1` (configuration not stated), for which the growth rescue (activation) is inactive: -22.9%.
Consider `O=[N+]([O-])c1ccc2c(c1)C=Nc1ccccc1O2`, for which the growth rescue (activation) was inactive: -2.4%.
Then `O=[N+]([O-])c1cc([N+](=O)[O-])c(Nc2cccnc2)c([N+](=O)[O-])c1`, with inactive: -2.1%; and `CCN(CC)CCCOC(=O)C(O)(c1ccccc1)c1ccccc1`, with inactive: -3.5%.
Turning to `CP(=O)(Nc1ccccn1)Oc1ccc(Cl)cc1` (configuration not stated), the growth rescue (activation) was inactive: -0.752%.
On to `CCOP(C)(=S)SCC(=O)NC(C)C(=O)O` (configuration not stated), for which the growth rescue (activation) was inactive: 3.93%.
Consider `CCOC(=O)c1ccc(NP(C)(=O)Oc2ccc(OC)cc2)cc1` (configuration not stated), for which the growth rescue (activation) is inactive: -9.86%.
On to `Cc1cc(C)cc(OP(C)(=O)Nc2ccc(SC(F)(F)F)cc2)c1` (configuration not stated), for which the growth rescue (activation) was inactive: 0.227%.
`CCc1ccc(OP(C)(=O)N2CCN(c3ccc([N+](=O)[O-])cc3)CC2)cc1` (configuration not stated): the growth rescue (activation) is inactive: 6.64%.
With `CP(=O)(NC(=O)Nc1ccccc1)Oc1ccccc1` (configuration not stated), the growth rescue (activation) was inactive: 1.23%.
Consider `CP(=O)(Oc1ccccc1)OC(c1ccccc1)C(F)(F)F` (configuration not stated), for which the growth rescue (activation) is inactive: 3.67%.
Consider `CP(=O)(Nc1ccc(SC(F)(F)F)cc1)Oc1ccc(Cl)cc1` (configuration not stated), for which the growth rescue (activation) was inactive: 17%.
In the case of `COc1ccccc1OP(C)(=O)Nc1ccccc1` (configuration not stated) it was inactive: 1.85%.
Then `CP(=O)(Nc1ccccc1Br)Oc1ccccc1` (configuration not stated), with inactive: 4.01%; and `CP(=S)(Nn1cnnc1)Oc1ccccc1` (configuration not stated), with inactive: -0.153%.

These data come from PubChem BioAssay AID485298 (National Center for Advancing Translational Sciences (NCATS), 2010).
